# Test results taken from paper PMC11412900 (Molecular Psychiatry, 2024).
# Protein sequences, listed by entry. Tags and fused reporters are not part of them.
# UniProt P28223, whole entry: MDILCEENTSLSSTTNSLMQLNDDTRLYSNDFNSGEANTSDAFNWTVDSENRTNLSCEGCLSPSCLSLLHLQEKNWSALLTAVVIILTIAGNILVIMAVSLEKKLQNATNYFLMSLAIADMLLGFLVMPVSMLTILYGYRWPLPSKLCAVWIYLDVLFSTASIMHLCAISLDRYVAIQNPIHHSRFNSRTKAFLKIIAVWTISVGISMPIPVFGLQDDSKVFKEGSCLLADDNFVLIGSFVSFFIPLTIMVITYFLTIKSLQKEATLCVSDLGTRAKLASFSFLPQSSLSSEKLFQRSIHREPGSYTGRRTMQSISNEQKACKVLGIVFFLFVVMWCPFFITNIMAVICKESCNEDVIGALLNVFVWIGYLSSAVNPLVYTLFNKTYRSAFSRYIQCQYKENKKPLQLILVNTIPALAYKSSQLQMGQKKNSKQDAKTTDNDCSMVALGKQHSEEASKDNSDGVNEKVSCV
# Biological target: T1, h5-HT2AR (Homo sapiens, UniProt P28223)
# T1 construct: purchased Perkin Elmer, Inc. (Waltham, MA, USA)
# Experiment: biochemical
# Assay type: binding
# Experimental: Binding assays were performed as described previously. Briefly, membrane preparations expressing h5-HT1AR, h5-HT2AR or hSERT (see Supplementary Material) were incubated with radiolabeled selective ligands 0.4 nM [^3H]8-OH-DPAT, 1 nM [^3H]ketanserin or 3 nM [^3H]imipramine, respectively. The drugs were diluted in the corresponding binding buffer and tested at increasing concentrations in duplicate. Binding reactions were performed in tubes containing the drug dilutions; 25 μl of the corresponding radioligand; and the membranes (10 μg and 5 μg/500 μL for 5-HT1AR and 5-HT2AR, respectively, and 15 μg/100 μL for hSERT), all diluted in binding buffer. […] Incubation was performed for 1 h at 27 °C for 5-HT1A/2AR and 22 °C for hSERT, according to the manufacturer’s protocol (Perkin Elmer, Inc., Waltham, MA, USA) and previous studies - saturation and kinetic experiments, respectively. The binding reactions were stopped by rapid filtration through GF/B glass microfiber filters pre-soaked with 0.5% polyethyleneimine and washing with ice-cold wash buffer. The filters were placed into vials and scintillation cocktail was added. The trapped radioactivity was quantified. Specific binding was defined as the difference between total binding (binding buffer alone) and non-specific binding. Experiments were conducted per duplicate for at least three independent experiments.
smiles,measurement,value
"COc1ccc2[nH]cc(CCN(C(C)C)C(C)C)c2c1 [5-MeO-DIPT, 5-methoxy-N,N-diisopropyltryptamine]",Ki,0.399 ± 0.049 µM
